From patent CN114621354A

Key:
TNF-α (human) [1] = molecular target: TNF-α (human) (UniProt P01375); assay: indirect ELISA on coated TNF-α
TNF-α (human) [2] = molecular target: TNF-α (human) (UniProt P01375); assay: BLI (BLItz), biotinylated binder on streptavidin sensor, TNF-α in solution, 1:1 model

Row | EC50 (TNF-α (human) [1]) | Kd (TNF-α (human) [2]) | koff (TNF-α (human) [2]) | kon (TNF-α (human) [2]) | Substance
1 | 1370 pM | 525 pM | 0.000269 s⁻¹ | 512000 M⁻¹ s⁻¹ | Ada-Fab (Fab; other documents disagree on this pair)
2 | 1490 pM | 225 pM | 0.000155 s⁻¹ | 686000 M⁻¹ s⁻¹ | Fab-ABDwt (Fab; other documents disagree on this pair)
3 | 1520 pM | 612 pM | 0.000334 s⁻¹ | 546000 M⁻¹ s⁻¹ | Fab-ABD094 (Fab; other documents disagree on this pair)
4 | 515 pM | 325 pM | 0.000101 s⁻¹ | 311000 M⁻¹ s⁻¹ | Adalimumab((Fab)2-Fc) (antibody; other documents disagree on this pair)
